Assay results: ChEMBL document CHEMBL1240413, “Synthesis and evaluation of vinyl sulfones as caspase-3 inhibitors. A structure-activity study” (Eur J Med Chem, 2010)

Molecular target: T1, Caspase-3 (Homo sapiens, UniProt P42574)
T1 sequence (P42574 whole entry): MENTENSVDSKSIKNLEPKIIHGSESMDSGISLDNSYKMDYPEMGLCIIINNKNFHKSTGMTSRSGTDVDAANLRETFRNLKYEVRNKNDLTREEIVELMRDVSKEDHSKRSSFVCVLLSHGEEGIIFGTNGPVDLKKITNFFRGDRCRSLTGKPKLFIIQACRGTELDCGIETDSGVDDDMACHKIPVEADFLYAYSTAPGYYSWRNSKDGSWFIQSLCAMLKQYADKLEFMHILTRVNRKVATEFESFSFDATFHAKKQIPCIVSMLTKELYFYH
Assay: Inhibition of human recombinant caspase 3 assessed as fluorescent 7-amido-4-methylcoumarin release

IC50: 1.6 nM
SMILES: CC(=O)N[C@@H](CC(=O)O)C(=O)N[C@@H](CCC(=O)O)C(=O)N[C@H](C(=O)N[C@H](C=O)CC(=O)O)C(C)C
